This experiment addresses Acetylcholinesterase (Homo sapiens, UniProt P22303). Description: Inhibition of human AchE-induced amyloid beta (1 to 40) aggregation after 48 hrs by thioflavin T fluorescence spectroscopic method.

Sequences of proteins named here, by UniProt entry; tags and fusion partners are left off. A change or cut given only in a name is not applied to a line headed by its entry.
UniProt P22303: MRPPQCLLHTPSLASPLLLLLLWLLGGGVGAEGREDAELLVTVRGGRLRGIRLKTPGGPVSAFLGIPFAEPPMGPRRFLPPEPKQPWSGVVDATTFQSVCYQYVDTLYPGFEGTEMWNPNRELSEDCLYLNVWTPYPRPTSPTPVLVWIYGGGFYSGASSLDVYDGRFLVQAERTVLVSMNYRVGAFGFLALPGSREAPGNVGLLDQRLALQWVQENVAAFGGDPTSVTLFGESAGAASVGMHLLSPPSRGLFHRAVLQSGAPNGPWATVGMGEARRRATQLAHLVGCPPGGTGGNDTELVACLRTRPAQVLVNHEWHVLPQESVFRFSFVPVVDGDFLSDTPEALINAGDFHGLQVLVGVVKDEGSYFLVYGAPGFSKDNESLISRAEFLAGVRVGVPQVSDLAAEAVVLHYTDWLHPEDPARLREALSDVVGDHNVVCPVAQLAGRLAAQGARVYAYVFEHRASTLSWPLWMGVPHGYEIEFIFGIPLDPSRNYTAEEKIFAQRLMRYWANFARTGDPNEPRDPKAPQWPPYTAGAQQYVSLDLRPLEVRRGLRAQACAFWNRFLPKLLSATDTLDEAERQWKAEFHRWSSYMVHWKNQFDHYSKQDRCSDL

Usually IC50 stands for the concentration at which inhibition is half-maximal. A low value points to inhibition by little substance. For `CC[N+](C)(CC)CCC[n+]1c(-c2ccccc2)c2cc(N)ccc2c2ccc(N)cc21` [PROPIDIUM], 45 µM corresponded to half-maximal inhibition (IC50).

The values are drawn from ChEMBL document CHEMBL4004782, “A review on tacrine-based scaffolds as multi-target drugs (MTDLs) for Alzheimer's disease” (Eur J Med Chem, 2017).
